In US9290490B2 (Merck Sharp & Dohme Corp., priority 2011, dated 2016):

Target: recombinant human GST-Syk (Homo sapiens (Human), UniProt P43405)
Experiment: Homogeneous Time-Resolved Fluorescence (HTRF) Assay for the Recombinant Human Syk Enzyme
Assay type: biochemical
Details: recombinant human GST-Syk 5 pM, ATP 25 μM
[1] = read-out: rhSyk Activity (IC50)
[2] = read-out: rhSyk Activity (IC50), tested form: TFA
[3] = read-out: rhSyk, 10-dose titration, tested form: TFA
[4] = read-out: rhSyk, 10-dose titration

IC50 [1] | SMILES | other results
100 to 1000 nM | CCCCOC(=O)[C@H]1CC[C@H](C(C)(O)c2ncc(-c3cc(C)cc(Nc4nccc(C)n4)c3)s2)CC1 (stereo partly drawn) | –
< 100 nM | Cc1cc(Nc2nccc(C)n2)cc(-c2cnc(C(C)(O)[C@H]3CC[C@H](C#N)CC3)s2)c1 (stereo partly drawn) | –
< 100 nM | Cc1cc(Nc2nccc(C)n2)cc(-c2cnc(C(C)(O)[C@H]3CC[C@H](NS(C)(=O)=O)CC3)s2)c1 (stereo partly drawn) | –
< 100 nM | Cc1cc(Nc2nccc(C(F)(F)F)n2)cc(-c2cnc(C(C)(O)[C@H]3CC[C@H](CO)CC3)s2)c1 (relative stereo) | –
100 to 1000 nM | CCCCOC(=O)[C@H]1CC[C@H](C(C)(O)c2ncc(-c3cc(C)cc(Nc4nccc(C(F)F)n4)c3)s2)CC1 (single isomer, unassigned) | –
< 100 nM | CCC(O)(c1ncc(-c2cc(C)cc(Nc3nccc(C)n3)c2)s1)[C@H]1CC[C@H](C(=O)O)CC1 (single isomer, unassigned) | –
100 to 1000 nM | CCCCOC(=O)[C@H]1CC[C@@H](C(C)(O)c2ncc(-c3cc(C)cc(Nc4nccc(C(F)(F)F)n4)c3)s2)CC1 (single isomer, unassigned) | –
100 to 1000 nM | CCCCOC(=O)[C@H]1CC[C@H](C(C)(O)c2ncc(-c3cc(C)cc(Nc4nccc(OC)n4)c3)s2)CC1 (single isomer, unassigned) | –
1000 to 10000 nM | CCCCOC(=O)[C@H]1CC[C@H](C(C)(O)c2ncc(-c3cccc(Nc4nccc(C)n4)c3)s2)CC1 (single isomer, unassigned) | IC50 [4]: 1430 nM
100 to 1000 nM | CCOC(=O)C1CCC(C(C)(O)c2ncc(-c3cc(C)cc(Nc4ncc(F)c(OC)n4)c3)s2)CC1C (single isomer, unassigned) | –
100 to 1000 nM | CCOC(=O)C1CCC(C(C)(O)c2ncc(-c3cc(C)cc(Nc4nccc(C(F)(F)F)n4)c3)s2)CC1C (single isomer, unassigned) | –
< 100 nM | CCOC(=O)C1CCC(C(C)(O)c2ncc(-c3cc(C)cc(Nc4nccc(C(F)F)n4)c3)s2)CC1C (single isomer, unassigned) | –
100 to 1000 nM | CCOC(=O)C1CCC(C(C)(O)c2ncc(-c3cc(C)cc(Nc4nccc(C)n4)c3)s2)CC1C (single isomer, unassigned) | –
100 to 1000 nM | CCOC(=O)[C@@H]1CC[C@@H](C(C)(O)c2ncc(-c3cc(C)cc(Nc4nccc(C(F)(F)F)n4)c3)s2)C[C@@H]1C (single isomer, unassigned) | –
100 to 1000 nM | CCOC(=O)[C@@H]1CC[C@@H](C(C)(O)c2ncc(-c3cc(C)cc(Nc4nccc(C)n4)c3)s2)C[C@@H]1C (single isomer, unassigned) | –
< 100 nM | COc1ccnc(Nc2cc(C)cc(-c3cnc(C(C)(O)C4CCC(C(=O)O)C(C)C4)s3)c2)n1 (single isomer, unassigned) | –
< 100 nM | Cc1cc(Nc2nccc(C(F)(F)F)n2)cc(-c2cnc(C(C)(O)C3CCC(C(=O)O)C(C)C3)s2)c1 (single isomer, unassigned) | –
< 100 nM | Cc1cc(Nc2nccc(C(F)F)n2)cc(-c2cnc(C(C)(O)C3CCC(C(=O)O)C(C)C3)s2)c1 (single isomer, unassigned) | –
< 100 nM | Cc1cc(Nc2nccc(C(F)F)n2)cc(-c2cnc(C(C)(O)[C@H]3CC[C@H](C(=O)O)CC3)s2)c1 (single isomer, unassigned) | IC50 [4]: 2 nM
< 100 nM | Cc1cc(Nc2nccc(C)n2)cc(-c2cnc(C(C)(O)C3CC(CC(=O)O)C3(C)C)s2)c1 (single isomer, unassigned) | –
< 100 nM | Cc1cc(Nc2nccc(C)n2)cc(-c2cnc(C(C)(O)C3CCC(C(=O)O)C(C)C3)s2)c1 (single isomer, unassigned) | –
< 100 nM | Cc1cc(Nc2nccc(C)n2)cc(-c2cnc(C(C)(O)[C@H]3CC[C@@H](C(=O)O)[C@@H](C)C3)s2)c1 (single isomer, unassigned) | –
< 100 nM | Cc1cc(Nc2nccc(C)n2)cc(-c2cnc(C(O)(CO)[C@H]3CC[C@H](C(=O)O)CC3)s2)c1 (single isomer, unassigned) | IC50 [2]: < 100 nM
< 100 nM | Cc1cc(Nc2nccc(C)n2)cc(-c2cnc(C(O)([C@H]3CC[C@H](C(=O)O)CC3)C(F)(F)F)s2)c1 (single isomer, unassigned) | IC50 [2]: < 100 nM

Further lines, the molecule ahead of its results:

SMILES | IC50 [1] | other results
COC(=O)C1CCC(C(O)c2ncc(-c3cc(C)cc(Nc4nccc(C(F)(F)F)n4)c3)s2)CC1 (stereo not drawn) | < 100 nM | –
COc1ccnc(Nc2cc(C)cc(-c3cnc(C(O)(CO)[C@H]4CC[C@H](C(=O)O)CC4)s3)c2)n1 (stereo partly drawn) | – | IC50 [2]: < 100 nM
Cc1cc(Nc2nccc(C(F)(F)F)n2)cc(-c2cnc(C(C)(O)C3C4CC(C(=O)O)CC43)s2)c1 (stereo not drawn) | – | IC50 [2]: < 100 nM
Cc1cc(Nc2nccc(C(F)(F)F)n2)cc(-c2cnc(C(C)(O)[C@@H]3C[C@H](C(=O)O)C3(C)C)s2)c1 (stereo partly drawn) | – | IC50 [2]: < 100 nM
Cc1cc(Nc2nccc(C(F)(F)F)n2)cc(-c2cnc(C(C)(O)[C@H]3CC[C@H](C#N)CC3)s2)c1 (stereo partly drawn) | < 100 nM | –
Cc1cc(Nc2nccc(C(F)(F)F)n2)cc(-c2cnc(C(C)(O)[C@H]3CC[C@H](NS(C)(=O)=O)CC3)s2)c1 (stereo partly drawn) | < 100 nM | –
Cc1cc(Nc2nccc(C(F)(F)F)n2)cc(-c2cnc(C(CO)[C@H]3CC[C@H](C(=O)O)CC3)s2)c1 (stereo partly drawn) | – | IC50 [2]: < 100 nM
Cc1cc(Nc2nccc(C(F)(F)F)n2)cc(-c2cnc(C(O)C3CCC(C(=O)O)CC3)s2)c1 (stereo not drawn) | < 100 nM | –
Cc1cc(Nc2nccc(C)n2)cc(-c2cnc(C(CC(O)CO)[C@H]3CC[C@H](C(=O)O)CC3)s2)c1 (stereo partly drawn) | < 100 nM | –
Cc1cc(Nc2nccc(C(F)(F)F)n2)cc(-c2cnc(C(C)(O)C34CC5CC(CC(C(=O)O)(C5)C3)C4)s2)c1 (racemic) | – | IC50 [2]: < 100 nM
Cc1cc(Nc2ncc(F)c(C3CC3)n2)cc(-c2cnc(C(C)(O)[C@H]3CC[C@H](C(=O)O)CC3)s2)c1 (relative stereo) | – | IC50 [2]: < 100 nM; IC50 [3]: < 0.5 nM
Cc1cc(Nc2nccc(C(F)(F)F)n2)cc(-c2cnc(C(C)(O)[C@@H]3C[C@@H]3C(C)(C)C(=O)O)s2)c1 (relative stereo) | < 100 nM | IC50 [4]: 1 nM
Cc1cc(Nc2nccc(C(F)(F)F)n2)cc(-c2cnc(C(C)(O)[C@@H]3C[C@H](CC(=O)O)C3(C)C)s2)c1 (relative stereo) | – | IC50 (read-out: rhSyk Activity (IC50), tested form: ammonium salt): < 100 nM
Cc1cc(Nc2nccc(C(F)(F)F)n2)cc(-c2cnc(C(C)(O)[C@H]3C[C@@H]3C(C)(C)C(=O)O)s2)c1 (relative stereo) | < 100 nM | –
Cc1cc(Nc2nccc(C(F)(F)F)n2)cc(-c2cnc(C(O)[C@H]3CC[C@@H](C(=O)O)CC3)s2)c1 (relative stereo) | < 100 nM | –
Cc1cc(Nc2nccc(C(F)(F)F)n2)cc(-c2cnc(C(O)[C@H]3CC[C@H](C(=O)O)CC3)s2)c1 (relative stereo) | < 100 nM | –
CC(C)C(O)(c1ncc(-c2cccc(Nc3nccc(C(F)(F)F)n3)c2)s1)[C@H]1CC[C@H](C(=O)O)CC1 (single isomer, unassigned) | < 100 nM | IC50 [2]: < 100 nM
CCC(O)(c1ncc(-c2cc(C)cc(Nc3nccc(C(F)(F)F)n3)c2)s1)[C@H]1CC[C@H](C(=O)O)CC1 (single isomer, unassigned) | < 100 nM | –

SMILES | IC50 [1] | other results
COc1nc(Nc2cc(C)cc(-c3cnc(C(C)(O)C4CCC(C(=O)O)C(C)C4)s3)c2)ncc1F (single isomer, unassigned) | – | IC50 [2]: < 100 nM
Cc1cc(Nc2ncc(F)c(C)n2)cc(-c2cnc(C(C)(O)C3CC(CC(=O)O)C3(C)C)s2)c1 (single isomer, unassigned) | < 100 nM | –
Cc1cc(Nc2nccc(C(F)(F)F)n2)cc(-c2cnc(C(C)(F)[C@H]3CC[C@H](C(=O)O)CC3)s2)c1 (single isomer, unassigned) | < 100 nM | –
Cc1cc(Nc2nccc(C(F)(F)F)n2)cc(-c2cnc(C(C)(O)C3CC(CC(=O)O)C3(C)C)s2)c1 (single isomer, unassigned) | < 100 nM | –
Cc1cc(Nc2nccc(C(F)(F)F)n2)cc(-c2cnc(C(C)(O)C3CC3C(C)(C)C(=O)O)s2)c1 (single isomer, unassigned) | < 100 nM | –
Cc1cc(Nc2nccc(C(F)(F)F)n2)cc(-c2cnc(C(C)(O)C3CC4C(C3)C4C(=O)O)s2)c1 (single isomer, unassigned) | – | IC50 [2]: < 100 nM; IC50 [3]: 3 nM
Cc1cc(Nc2nccc(C(F)(F)F)n2)cc(-c2cnc(C(C)(O)[C@H]3C[C@@H]3C(C)(C)C(=O)O)s2)c1 (single isomer, unassigned) | < 100 nM | –
Cc1cc(Nc2nccc(C(F)(F)F)n2)cc(-c2cnc(C(F)C3CCC(C(=O)O)CC3)s2)c1 (single isomer, unassigned) | – | IC50 [2]: < 100 nM
Cc1cc(Nc2nccc(C(F)(F)F)n2)cc(-c2cnc(C(F)[C@H]3CC[C@@H](C(=O)O)CC3)s2)c1 (single isomer, unassigned) | – | IC50 [2]: < 100 nM
Cc1cc(Nc2nccc(C(F)(F)F)n2)cc(-c2cnc(C(F)[C@H]3CC[C@H](C(=O)O)CC3)s2)c1 (single isomer, unassigned) | – | IC50 [2]: < 100 nM
Cc1cc(Nc2nccc(C(F)(F)F)n2)cc(-c2cnc(C(O)(C(C)C)[C@H]3CC[C@H](C(=O)O)CC3)s2)c1 (single isomer, unassigned) | < 100 nM | –
Cc1cc(Nc2nccc(C(F)(F)F)n2)cc(-c2cnc(C(O)(CO)[C@H]3CC[C@H](C(=O)O)CC3)s2)c1 (single isomer, unassigned) | < 100 nM | IC50 [2]: < 100 nM
Cc1cc(Nc2nccc(C(F)(F)F)n2)cc(-c2cnc(C(O)([C@H]3CC[C@H](C(=O)O)CC3)C(F)(F)F)s2)c1 (single isomer, unassigned) | < 100 nM | –
Cc1cc(Nc2nccc(C(F)(F)F)n2)cc(-c2cnc(C(O)C3(O)CCC(C(=O)O)CC3)s2)c1 (single isomer, unassigned) | < 100 nM | –
Cc1cc(Nc2nccc(C(F)F)n2)cc(-c2cnc(C(O)([C@H]3CC[C@H](C(=O)O)CC3)C(F)(F)F)s2)c1 (single isomer, unassigned) | < 100 nM | –
Cc1cc(Nc2nccc(C)n2)cc(-c2cnc(C(C)(O)[C@H]3CC[C@H](c4nn[nH]n4)CC3)s2)c1 (single isomer, unassigned) | – | IC50 [2]: < 100 nM; IC50 [3]: 5 nM
Cc1ccnc(Nc2cccc(-c3cnc(C(C)(O)[C@H]4CC[C@H](C(=O)O)CC4)s3)c2)n1 (single isomer, unassigned) | < 100 nM | –

Read-outs that look alike come from different tables or passages of the source.
